Test results taken from patent US20160060354A1 (Sanofi, published 2016).

Biological target: T1, TEM1 on SJSA-1 and A673 cells (UniProt Q9HCU0 18-757, limits assumed)
T1 sequence (looked up): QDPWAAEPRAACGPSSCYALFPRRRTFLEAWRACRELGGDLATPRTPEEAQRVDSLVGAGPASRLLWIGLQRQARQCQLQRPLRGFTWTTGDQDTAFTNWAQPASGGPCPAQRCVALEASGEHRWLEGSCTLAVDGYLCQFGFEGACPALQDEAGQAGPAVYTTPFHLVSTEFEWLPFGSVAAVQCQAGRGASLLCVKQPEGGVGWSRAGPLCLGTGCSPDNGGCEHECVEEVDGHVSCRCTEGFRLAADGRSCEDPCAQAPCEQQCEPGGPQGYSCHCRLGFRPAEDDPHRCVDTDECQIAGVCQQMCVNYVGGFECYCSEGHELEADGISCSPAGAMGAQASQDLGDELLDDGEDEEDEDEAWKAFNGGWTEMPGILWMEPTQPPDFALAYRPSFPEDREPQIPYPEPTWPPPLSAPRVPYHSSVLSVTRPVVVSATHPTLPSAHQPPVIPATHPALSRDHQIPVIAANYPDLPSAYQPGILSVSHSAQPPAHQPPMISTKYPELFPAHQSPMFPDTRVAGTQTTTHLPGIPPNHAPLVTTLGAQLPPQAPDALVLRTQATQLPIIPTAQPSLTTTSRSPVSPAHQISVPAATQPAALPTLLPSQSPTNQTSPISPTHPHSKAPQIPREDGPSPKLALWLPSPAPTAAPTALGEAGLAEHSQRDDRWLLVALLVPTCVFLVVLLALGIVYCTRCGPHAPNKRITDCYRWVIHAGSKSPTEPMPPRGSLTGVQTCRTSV
Assay: cell-based or functional assay

IC50, cell proliferation assay, A673-DMEM-RPMI cells: 0.9 µg/mL | IC50, cell proliferation assay, A673-RPMI cells: 1 µg/mL | IC50, cell proliferation assay, SJSA-1 cells: 4 µg/mL
B1: antiTEM1-MC-VC-PABC-MMAE (antibody)
heavy: QVQLQESAPGLVKPSETLSLTCTVSGGSIRSYYWSWIRQPPGKGLEYIGYIYYTGSAIYNPSLQSRVTISVDTSKNQFSLKLNSVTAADTAVYYCAREGVRGASGYYYYGMDVWGQGTTVTVSSASTKGPSVFPLAPSSKSTSGGTAALGCLVKDYFPEPVTVSWNSGALTSGVHTFPAVLQSSGLYSLSSVVTVPSSSLGTQTYICNVNHKPSNTKVDKKV[here human IgG1 Fc without letters]
light: not shown
modifications: MC-VC-PABC-MMAE by thiol conjugation; DAR not given
